# Yeast mating assay 1: variants of the scFv Ab-14

Values reported by Engelhart et al. 2022, doi:10.1038/s41597-022-01779-4 (FLAb copy).

Binding partner: SARS-CoV-2 spike HR2 peptide, sequence PDVDLGDISGINAS.

Ab-14 is the parent antibody, in scFv form: VH, then a 15-residue (Gly4Ser)3 linker, then VL. The heavy chain is unchanged in all variants.
VH: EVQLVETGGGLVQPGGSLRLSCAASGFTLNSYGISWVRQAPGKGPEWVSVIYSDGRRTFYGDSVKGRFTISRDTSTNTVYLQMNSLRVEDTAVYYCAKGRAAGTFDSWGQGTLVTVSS
VL: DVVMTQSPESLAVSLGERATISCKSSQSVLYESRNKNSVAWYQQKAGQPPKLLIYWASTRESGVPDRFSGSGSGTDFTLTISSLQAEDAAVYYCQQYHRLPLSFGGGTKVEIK

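The parent was found by panning a naive human phage display library on the peptide. AAYL50 was designed without a model: most single CDR substitutions and a random sample of double and triple ones. Affinity was read by AlphaSeq, a pooled yeast mating assay with surface-displayed partners. Binding brings cells together so that they mate, and sequencing counts the barcode pairs among the diploids. The ratio of observed to expected reads was calibrated, replicate by replicate, on BCL2-family standards whose Kd was known from biolayer interferometry. Each pool was mated in three replicate cultures.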

Sequences are complete VL domains. This list gathers variants with a substitution at L30 (VL, numbered from residue 1). The Kd shown is the geometric mean over detected replicates; a lower Kd is a better binder. A pair that was not seen in any replicate is written "nd"; this usually means weak binding, but a binder can also be missed. For reference, the parent read 4.4 nM as the reference entry and 48 nM as a member of this library. Empty control strains, which show no peptide, gave a signal in 18% of pairings with library AAYL50; the median was 15 µM and 95% of these signals were weaker than 970 nM. No background was subtracted.

* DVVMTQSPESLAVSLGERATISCKSSQSVVYESRNKNSVAWYQQKAGQPPKLLIYRASTRESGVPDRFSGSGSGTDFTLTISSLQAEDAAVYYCQQYHRFPLSFGGGTKVEIK: 170 nM (3 of 3 replicates)
* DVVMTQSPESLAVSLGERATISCKSSQSVAYEYRNKNSVAWYQQKAGQPPKLLIYWASTRESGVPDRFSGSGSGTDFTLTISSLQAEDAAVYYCQQYHRLPLIFGGGTKVEIK: 470 nM (3 of 3 replicates)
* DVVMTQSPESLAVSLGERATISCKLSQSVYYESRYKNSVAWYQQKAGQPPKLLIYWASTRESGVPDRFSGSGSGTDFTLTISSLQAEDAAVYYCQQYHRLPLSFGGGTKVEIK: 1.2 nM (3 of 3 replicates)
* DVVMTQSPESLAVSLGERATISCRSSQSVSYFSRNKNSVAWYQQKAGQPPKLLIYWASTRESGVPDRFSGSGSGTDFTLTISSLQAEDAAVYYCQQYHRLPLSFGGGTKVEIK: 72 nM (3 of 3 replicates)
* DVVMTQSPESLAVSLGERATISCKSSQSVFYESRWKNSVAWYQQKAGQPPKLLIYWASTRESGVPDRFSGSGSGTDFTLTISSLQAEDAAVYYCQQYHRLPLSFGGGTKVEIK: 70 nM (3 of 3 replicates)
* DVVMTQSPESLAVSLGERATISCKSSQSVTYESRNKNSVPWYQQKAGQPPKLLIYWASTPESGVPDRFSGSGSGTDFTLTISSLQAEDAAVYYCQQYHRLPLSFGGGTKVEIK: nd (0 of 3 replicates)
* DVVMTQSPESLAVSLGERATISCKSSQSVNYESRNKNSVAWYQQKAGQPPKLLIYWASTREYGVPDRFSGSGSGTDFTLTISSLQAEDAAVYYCQQYHRLPLYFGGGTKVEIK: 1.9 µM (3 of 3 replicates)
* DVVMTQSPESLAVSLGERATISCKSSQSVGYKSRNKNSVAWYQQKAGQPPKLLIYWASTRESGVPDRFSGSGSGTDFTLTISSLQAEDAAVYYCLQYHRLPLSFGGGTKVEIK: nd (0 of 3 replicates)
* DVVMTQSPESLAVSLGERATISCKSSQSVTYESRNKNSVAWYQQKAGQPPKLLIYAASTRESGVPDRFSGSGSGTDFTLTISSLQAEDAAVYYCQQYCRLPLSFGGGTKVEIK: 1.6 nM (3 of 3 replicates)
* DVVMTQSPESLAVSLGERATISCKSSQSVVYESRNKNEVAWYQQKAGQPPKLLIYWASTRESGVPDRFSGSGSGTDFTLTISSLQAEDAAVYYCQQYHRLPLSFGGGTKVEIK: nd (0 of 3 replicates)
* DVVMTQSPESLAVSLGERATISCKSSQSVVFESRNKNSVAWYQQKAGQPPKLLIYWASTRKSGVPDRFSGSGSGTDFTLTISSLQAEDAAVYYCQQYHRLPLSFGGGTKVEIK: 7.1 µM (3 of 3 replicates)
* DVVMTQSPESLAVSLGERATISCKSSQSVAYESRNKESVAWYQQKAGQPPKLLIYWASTRESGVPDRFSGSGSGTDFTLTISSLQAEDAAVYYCQQYHRLILSFGGGTKVEIK: nd (0 of 3 replicates)
* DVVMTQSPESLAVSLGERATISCKSSQSTEYESRNKNSVAWYQQKAGQPPKLLIYWASTRESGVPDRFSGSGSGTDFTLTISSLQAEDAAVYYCQQYHRVPLSFGGGTKVEIK: 2.5 nM (3 of 3 replicates)
* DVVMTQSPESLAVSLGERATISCKSSQSVFYESRNKNSVAWYQQKAGQPPKLLIYWASTRESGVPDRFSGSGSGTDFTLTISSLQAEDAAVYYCQQWHRLELSFGGGTKVEIK: 34 µM (2 of 3 replicates)
* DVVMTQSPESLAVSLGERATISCKSSQSIRYESRNKNSVAWYQQKAGQPPKLLIYWASTREGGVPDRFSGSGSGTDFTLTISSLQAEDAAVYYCQQYHRLPLSFGGGTKVEIK: 5.5 µM (3 of 3 replicates)
* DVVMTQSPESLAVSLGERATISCKSSQSVRYESNNKNSVAWYQQKAGQPPKLLIYWISTRESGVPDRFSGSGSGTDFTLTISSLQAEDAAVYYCQQYHRLPLSFGGGTKVEIK: 120 nM (3 of 3 replicates)
* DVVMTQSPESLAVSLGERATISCKSSQSFNYESRNKNSVAWYQQKAGQPPKLLIYWASTRESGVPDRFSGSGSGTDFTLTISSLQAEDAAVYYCQQYHRLPTSFGGGTKVEIK: 410 µM (2 of 3 replicates)
* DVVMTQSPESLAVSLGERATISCKSSESVDYESKNKNSVAWYQQKAGQPPKLLIYWASTRESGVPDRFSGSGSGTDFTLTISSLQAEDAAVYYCQQYHRLPLSFGGGTKVEIK: 2.7 nM (3 of 3 replicates)
* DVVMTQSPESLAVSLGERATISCKSIQSVPYESRNKNSVAWYQQKAGQPPKLLIYWVSTRESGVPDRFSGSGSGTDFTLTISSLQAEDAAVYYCQQYHRLPLSFGGGTKVEIK: 5.8 µM (2 of 3 replicates)
* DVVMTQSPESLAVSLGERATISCKSSQSVNYESRNKNSVAWYQQKAGQPPKLLIYWASRRESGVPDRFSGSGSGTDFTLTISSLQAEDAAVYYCQQYQRLPLSFGGGTKVEIK: nd (0 of 3 replicates)

For reference, 2 entries of the list once more:

VL,apparent Kd,replicates with signal
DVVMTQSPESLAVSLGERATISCKSSQSVVYESRNKNEVAWYQQKAGQPPKLLIYWASTRESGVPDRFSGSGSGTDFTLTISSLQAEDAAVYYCQQYHRLPLSFGGGTKVEIK,nd,0/3
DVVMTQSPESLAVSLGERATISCRSSQSVSYFSRNKNSVAWYQQKAGQPPKLLIYWASTRESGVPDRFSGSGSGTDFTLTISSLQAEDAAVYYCQQYHRLPLSFGGGTKVEIK,72 nM,3/3